The values below come from BindingDB's records for doi:10.1021/jm950759z (Cooperation Pharmaceutique Fran?aise, 1997).

The assay can be described thus: Inhibition of [3H]spiperone binding to Dopamine receptor D3 in bovine cortex.

As for `CCCN(CCC)C1CCc2cccc(O)c2C1` (stereo unspecified), the Ki was found to be 14.6 µM.
